The list shows a part of the results, in another mix than the full data. Records with an inconclusive call do not appear. Activity calls are given as the source filed them. The call rests on the fitted dose curve; in most records, active means well fitted inhibition curve with a large enough effect; inconclusive means small, poorly fitted or top-dose-only effect; inactive means no such curve, though single readings can be large or run the other way.

Chains of the proteins cited; added tags and fusions are not shown.
UniProt P83916, whole entry: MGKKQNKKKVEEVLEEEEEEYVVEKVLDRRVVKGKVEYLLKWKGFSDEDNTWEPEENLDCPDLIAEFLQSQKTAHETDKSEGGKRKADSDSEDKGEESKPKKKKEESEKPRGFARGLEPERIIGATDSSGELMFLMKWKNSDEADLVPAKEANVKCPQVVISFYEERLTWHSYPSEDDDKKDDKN

The assay has as its target Chromobox protein homolog 1 (Homo sapiens) (UniProt P83916). The assay is described as follows: HTS for Inhibitors of HP1-beta Chromodomain Interactions with Methylated Histone Tails. Further: nearly all actives have a fitted effect of over 70% in size. The following applies: AlphaScreen HP1-beta / biotin-H3K9me3 peptide binding; at 114 µM (top of the series). For orientation: In Alpha technology, singlet oxygen from a donor bead excites a nearby acceptor bead.
For the compound `CCC(=O)N(c1ccccc1)C1(COC)CCN(CCn2nnn(CC)c2=O)CC1`, the activity change, negative = inhibition is inactive: 28.9%. The value for `CCC(=O)N(c1ccccc1)C1(COC)CCN(CCc2cccs2)CC1` was inactive: 7.29%.

(Values after PubChem BioAssay AID540317 (National Center for Advancing Translational Sciences (NCATS), 2011).)
